Our source for the hydrolysis of S-2586 by the proteinase associated with plantar stratum corneum cells, Activity (%) and S-2586 hydrolysing activity of rSCCE, Activity (%) (% activity values is patent publication US5834290.

Experiment [1] has as its target stratum corneum chymotryptic enzyme (SCCE), native, from human plantar stratum corneum (human).
Experiment [2] concerns the target recombinant SCCE, active (trypsin-activated recombinant SCCE of Example 10; rSCCE of Examples 12 and 13) (human).

Turning to aprotinin (from UniProt P00974), the hydrolysis of S-2586 by the proteinase associated with plantar stratum corneum cells, Activity (%) in experiment [1] worked out at 10 % activity. The S-2586 hydrolysing activity of rSCCE, Activity (%) (% activity at 5.7 µM aprotinin) in experiment [2] was 7.4.
